Data as given in PubChem BioAssay (NCI).
This is a selection; strong and weak results do not stand in their true shares. Some structures show a salt or complex split into parts, the way the source records it. Some compounds were tested as several samples or in several runs, with calls that do not always agree. The source made the active and inactive calls. Rule as the data show it: active = growth inhibition above about 70%; inactive = the rest.

Tests used:
[1] = NCI Yeast Anticancer Drug Screen. Data for the rad50 strain (AID 155);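 also: 0% = growth of vehicle-only cultures of the same strain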; conditions: S. cerevisiae rad50 strain growth inhibition, hits give high values
[2] = NCI Yeast Anticancer Drug Screen. Data for the mec2-1 strain (AID 157); conditions: S. cerevisiae mec2-1 strain, hits give high values
[3] = NCI Yeast Anticancer Drug Screen. Data for the sgs1 mgt1 strain (AID 161);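 also: 0% = growth of cultures given vehicle only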; conditions: S. cerevisiae sgs1 mgt1 strain, hits give high values
[4] = NCI Yeast Anticancer Drug Screen. Data for the cln2 rad14 strain (AID 165);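 also: 0% = growth equal to vehicle treated cultures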; conditions: S. cerevisiae cln2 rad14 strain, hits give high values
[5] = NCI Yeast Anticancer Drug Screen. Data for the bub3 strain (AID 167); conditions: S. cerevisiae bub3 mutant strain, hits give high values
[6] = NCI Yeast Anticancer Drug Screen. Data for the mlh1 rad18 strain (AID 175); conditions: S. cerevisiae mlh1 rad18 strain growth inhibition, hits give high values
[7] = NCI Yeast Anticancer Drug Screen. Data for the rad14 strain (AID 159);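 also: 0% = growth of vehicle-treated control cultures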; conditions: S. cerevisiae rad14 strain growth inhibition, hits give high values
Procedure, shortened: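 Vehicle-treated cultures served as the baseline for growth inhibition of a DNA repair-mutant yeast strain exposed to each compound.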

[8] = NCI Yeast Anticancer Drug Screen. Data for the rad50EPP+ strain (AID 151);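 also: 0% = growth of vehicle-treated control cultures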; conditions: S. cerevisiae rad50 mutant strain, hits give high values
Procedure, shortened: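 Yeast strain carrying rad50 alteration (rad50EPP+) exposed to compounds; growth inhibition measured relative to vehicle-treated controls.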

[9] = NCI Yeast Anticancer Drug Screen. Data for the wt2 strain (AID 169);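 also: 0% = growth of vehicle-treated yeast cultures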; conditions: S. cerevisiae wt2 strain growth inhibition, hits give high values
Procedure, shortened: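 Yeast cells were exposed to test compounds, and growth inhibition was measured relative to vehicle-treated controls.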

[10] = at 5.0 µM (retest, dose inferred, filed as 0.5)
[11] = at 50.0 µM (retest, dose inferred, filed as 5.0)

## [Au+].[Au+].c1ccc([PH+](c2ccccc2)c2ccccc2)cc1.c1ccc([PH+](c2ccccc2)c2ccccc2)cc1.n1n[n-]c(-c2nnn[n-]2)n1
[1]; at 1.2 µM
  growth inhibition: inactive: -2%
[1]; at 3.7 µM
  growth inhibition: inactive: 53%
[1]; [10]
  growth inhibition: active: 99%
[1]; at 11.0 µM
  growth inhibition: active: 99%
[1]; at 33.0 µM
  growth inhibition: active: 99%
[1]; [11]
  growth inhibition: active: 98%
[1]; at 50.0 µM
  growth inhibition: active: 97.4%
[1]; at 100.0 µM
  growth inhibition: active: 99%
[2]; at 1.2 µM
  growth inhibition: inactive: -6%
[2]; at 3.7 µM
  growth inhibition: active: 80%
[2]; [10]
  growth inhibition: active: 99%
[2]; at 11.0 µM
  growth inhibition: active: 96%
[2]; at 33.0 µM
  growth inhibition: active: 98%
[2]; [11]
  growth inhibition: active: 99%
[2]; at 50.0 µM
  growth inhibition: active: 95.3%
[2]; at 100.0 µM
  growth inhibition: active: 98%
[3]; [10]
  growth inhibition: active: 98%
[3]; [11]
  growth inhibition: active: 98%
[3]; at 50.0 µM
  growth inhibition: active: 95.6%
[4]; [10]
  growth inhibition: active: 81%
[4]; [11]
  growth inhibition: active: 98%
[4]; at 50.0 µM
  growth inhibition: active: 96.6%
[5]; at 1.2 µM
  growth inhibition: inactive: -14%
[5]; at 3.7 µM
  growth inhibition: inactive: 14%
[5]; [10]
  growth inhibition: active: 88%
[5]; at 11.0 µM
  growth inhibition: active: 98%
[5]; at 33.0 µM
  growth inhibition: active: 99%
[5]; [11]
  growth inhibition: active: 98%
[5]; at 50.0 µM
  growth inhibition: active: 89.8%
[5]; at 100.0 µM
  growth inhibition: active: 99%
[6]; [10]
  growth inhibition: active: 98%
[6]; [11]
  growth inhibition: active: 98%
[6]; at 50.0 µM
  growth inhibition: active: 97.9%

## Cc1c([N+](=O)[O-])cc([N+](=O)[O-])c(Cl)c1[N+](=O)[O-]
[1]; [10]
  growth inhibition: inactive: 53%
[1]; [11]
  growth inhibition: active: 99%
[1]; at 50.0 µM
  growth inhibition: inactive: 30.3%
[2]; [10]
  growth inhibition: inactive: 46%
[2]; [11]
  growth inhibition: active: 100%
[2]; at 50.0 µM
  growth inhibition: active: 96.5%
[3]; [10]
  growth inhibition: inactive: 55%
[3]; [11]
  growth inhibition: active: 95%
[3]; at 50.0 µM
  growth inhibition: active: 97.4%
[4]; [10]
  growth inhibition: inactive: 29%
[4]; [11]
  growth inhibition: active: 100%
[4]; at 50.0 µM
  growth inhibition: inactive: -4.35%
[5]; [10]
  growth inhibition: inactive: 22%
[5]; [11]
  growth inhibition: active: 100%
[5]; at 50.0 µM
  growth inhibition: active: 99.4%
[6]; [10]
  growth inhibition: inactive: 37%
[6]; [11]
  growth inhibition: active: 99%
[6]; at 50.0 µM
  growth inhibition: active: 94.8%

## CCC1CCCCCCC1[S+](C)CC.O=[N+]([O-])c1cc([N+](=O)[O-])c(S(=O)(=O)[O-])c([N+](=O)[O-])c1
[1]; [10]
  growth inhibition: inactive: 3%
[1]; [11]
  growth inhibition: inactive: 22%
[1]; at 50.0 µM
  growth inhibition: inactive: 52.2%
[2]; [10]
  growth inhibition: inactive: 10%
[2]; [11]
  growth inhibition: inactive: 42%
[2]; at 50.0 µM
  growth inhibition: inactive: 27.6%
[3]; [10]
  growth inhibition: inactive: -8%
[3]; [11]
  growth inhibition: inactive: 55%
[3]; at 50.0 µM
  growth inhibition: inactive: 61.8%
[4]; [10]
  growth inhibition: inactive: -6%
[4]; [11]
  growth inhibition: inactive: 21%
[4]; at 50.0 µM
  growth inhibition: inactive: 56%
[5]; [10]
  growth inhibition: inactive: 0%
[5]; [11]
  growth inhibition: inactive: 35%
[5]; at 50.0 µM
  growth inhibition: inactive: 46.9%
[6]; [10]
  growth inhibition: inactive: 23%
[6]; [11]
  growth inhibition: inactive: 52%
[6]; at 50.0 µM
  growth inhibition: inactive: 26.6%

## CCCCCCCCCCCCCCC[C@@H]1C[N+](C)(C)CCO[P@@](C)(=O)O1
[1]; [10]
  growth inhibition: inactive: 47%
[1]; [11]
  growth inhibition: active: 98%
[1]; at 50.0 µM
  growth inhibition: active: 91.1%
[2]; [10]
  growth inhibition: inactive: 34%
[2]; [11]
  growth inhibition: active: 99%
[2]; at 50.0 µM
  growth inhibition: active: 92.8%
[3]; [10]
  growth inhibition: active: 90%
[3]; [11]
  growth inhibition: active: 83%
[3]; at 50.0 µM
  growth inhibition: active: 90%
[4]; [10]
  growth inhibition: active: 85%
[4]; [11]
  growth inhibition: active: 75%
[4]; at 50.0 µM
  growth inhibition: active: 89.7%
[5]; [10]
  growth inhibition: active: 94%
[5]; [11]
  growth inhibition: active: 85%
[5]; at 50.0 µM
  growth inhibition: active: 85.9%
[6]; [10]
  growth inhibition: active: 70%
[6]; [11]
  growth inhibition: active: 98%
[6]; at 50.0 µM
  growth inhibition: active: 92.3%

## COc1ccccc1N.O=[N+]([O-])c1cc([N+](=O)[O-])cc([N+](=O)[O-])c1
[1]; at 1.2 µM
  growth inhibition: inactive: -1%
[1]; at 3.7 µM
  growth inhibition: inactive: 7%
[1]; [10]
  growth inhibition: inactive: 10%
[1]; at 11.0 µM
  growth inhibition: inactive: 53%
[1]; at 33.0 µM
  growth inhibition: active: 99%
[1]; [11]
  growth inhibition: active: 99%
[1]; at 50.0 µM
  growth inhibition: active: 99.8%
[1]; at 100.0 µM
  growth inhibition: active: 99%
[2]; at 1.2 µM
  growth inhibition: inactive: -2%
[2]; at 3.7 µM
  growth inhibition: inactive: 10%
[2]; [10]
  growth inhibition: inactive: 18%
[2]; at 11.0 µM
  growth inhibition: inactive: 54%
[2]; at 33.0 µM
  growth inhibition: active: 99%
[2]; [11]
  growth inhibition: active: 100%
[2]; at 50.0 µM
  growth inhibition: active: 99.8%
[2]; at 100.0 µM
  growth inhibition: active: 99%
[7]; at 1.2 µM
  growth inhibition: inactive: 2%
[7]; at 3.7 µM
  growth inhibition: inactive: 18%
[7]; at 11.0 µM
  growth inhibition: inactive: 56%
[7]; at 33.0 µM
  growth inhibition: active: 99%
[7]; at 100.0 µM
  growth inhibition: active: 99%
[3]; [10]
  growth inhibition: inactive: 27%
[3]; [11]
  growth inhibition: active: 99%
[3]; at 50.0 µM
  growth inhibition: active: 99.8%
[4]; [10]
  growth inhibition: inactive: -1%
[4]; [11]
  growth inhibition: active: 98%
[4]; at 50.0 µM
  growth inhibition: active: 99.5%
[5]; at 1.2 µM
  growth inhibition: inactive: -4%
[5]; at 3.7 µM
  growth inhibition: inactive: 4%
[5]; [10]
  growth inhibition: inactive: 24%
[5]; at 11.0 µM
  growth inhibition: active: 71%
[5]; at 33.0 µM
  growth inhibition: active: 99%
[5]; [11]
  growth inhibition: active: 97%
[5]; at 50.0 µM
  growth inhibition: active: 99.9%
[5]; at 100.0 µM
  growth inhibition: active: 99%
[6]; [10]
  growth inhibition: inactive: 30%
[6]; [11]
  growth inhibition: active: 99%
[6]; at 50.0 µM
  growth inhibition: active: 86.3%

## Cc1cc2ccccc2cc1C.O=[N+]([O-])c1cc([N+](=O)[O-])cc([N+](=O)[O-])c1
[8]; at 1.2 µM
  growth inhibition: inactive: 4%
[8]; at 3.7 µM
  growth inhibition: inactive: 5%
[8]; at 11.0 µM
  growth inhibition: inactive: 13%
[8]; at 33.0 µM
  growth inhibition: inactive: 34%
[8]; at 100.0 µM
  growth inhibition: active: 94%
[1]; at 1.2 µM
  growth inhibition: inactive: -1%
[1]; at 3.7 µM
  growth inhibition: inactive: 1%
[1]; [10]
  growth inhibition: inactive: 9%
[1]; at 11.0 µM
  growth inhibition: inactive: 0%
[1]; at 33.0 µM
  growth inhibition: inactive: 12%
[1]; [11]
  growth inhibition: active: 99%
[1]; at 50.0 µM
  growth inhibition: inactive: 11.1%
[1]; at 100.0 µM
  growth inhibition: active: 75%
[2]; at 1.2 µM
  growth inhibition: inactive: -2%
[2]; at 3.7 µM
  growth inhibition: inactive: 2%
[2]; [10]
  growth inhibition: inactive: 11%
[2]; at 11.0 µM
  growth inhibition: inactive: 7%
[2]; at 33.0 µM
  growth inhibition: inactive: 25%
[2]; [11]
  growth inhibition: active: 99%
[2]; at 50.0 µM
  growth inhibition: inactive: 65.5%
[2]; at 100.0 µM
  growth inhibition: active: 82%
[3]; [10]
  growth inhibition: inactive: 29%
[3]; [11]
  growth inhibition: active: 99%
[3]; at 50.0 µM
  growth inhibition: active: 77.5%
[4]; [10]
  growth inhibition: inactive: -6%
[4]; [11]
  growth inhibition: active: 99%
[4]; at 50.0 µM
  growth inhibition: active: 79.5%
[5]; at 1.2 µM
  growth inhibition: inactive: -4%
[5]; at 3.7 µM
  growth inhibition: inactive: -2%
[5]; [10]
  growth inhibition: inactive: 5%
[5]; at 11.0 µM
  growth inhibition: inactive: -2%
[5]; at 33.0 µM
  growth inhibition: inactive: 11%
[5]; [11]
  growth inhibition: active: 99%
[5]; at 50.0 µM
  growth inhibition: active: 93.3%
[5]; at 100.0 µM
  growth inhibition: active: 71%
[9]; at 1.2 µM
  growth inhibition: inactive: -1%
[9]; at 3.7 µM
  growth inhibition: inactive: 1%
[9]; at 11.0 µM
  growth inhibition: inactive: 2%
[9]; at 33.0 µM
  growth inhibition: inactive: 10%
[9]; at 100.0 µM
  growth inhibition: active: 72%
[6]; [10]
  growth inhibition: inactive: 15%
[6]; [11]
  growth inhibition: active: 99%
[6]; at 50.0 µM
  growth inhibition: active: 78.1%
